Membrane permeability of cyclic peptides

Collected by the curators of CycPeptMPDB (Li et al. 2023) from Kelly et al. 2021, doi:10.1021/jacs.0c06115.

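Lipid, pH, incubation time, direction and concentration are not recorded in the data file. The list need not hold all peptides of the study. Peptides that the database sets to -10, its floor, are left out.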

PAMPA measures passive passage through an artificial lipid membrane. P is given in units of 10^-6 cm/s (from log10 values with two decimals); larger means faster passage.

structure (SMILES),PAMPA (10^-6 cm/s)
CC(=O)N1CCC[C@H]1C(=O)N(C)[C@@H](CC(C)C)C(=O)N[C@@H]1C(=O)N(C)[C@@H](CC(C)C)C(=O)N[C@@H](CC(C)C)C(=O)N(C)[C@@H](CC(C)C)C(=O)N(C)[C@@H](C)C(=O)N[C@H](CC(C)C)C(=O)N2CCC[C@H]2C(=O)O[C@@H]1C,0.083
CC(=O)N1CCC[C@H]1C(=O)N(C)[C@@H](CC(C)C)C(=O)N[C@@H]1C(=O)N(C)[C@@H](CC(C)C)C(=O)N(C)[C@H](CC(C)C)C(=O)N(C)[C@H](CC(C)C)C(=O)N(C)[C@@H](C)C(=O)N[C@@H](CC(C)C)C(=O)N2CCC[C@H]2C(=O)O[C@@H]1C,2.5
CC(=O)N1CCC[C@@H]1C(=O)N(C)[C@@H](CC(C)C)C(=O)N[C@@H]1C(=O)N(C)[C@H](CC(C)C)C(=O)N(C)[C@H](CC(C)C)C(=O)N[C@H](CC(C)C)C(=O)N(C)[C@H](C)C(=O)N[C@H](CC(C)C)C(=O)N2CCC[C@H]2C(=O)O[C@@H]1C,4
CC(=O)N1CCC[C@H]1C(=O)N(C)[C@H](CC(C)C)C(=O)N[C@@H]1C(=O)N[C@@H](CC(C)C)C(=O)N(C)[C@H](CC(C)C)C(=O)N[C@H](CC(C)C)C(=O)N(C)[C@@H](C)C(=O)N[C@@H](CC(C)C)C(=O)N2CCC[C@@H]2C(=O)O[C@@H]1C,1.9
CC(=O)N1CCC[C@H]1C(=O)N[C@@H]1C(=O)N[C@H](CC(C)C)C(=O)N[C@@H](CC(C)C)C(=O)N[C@H](CC(C)C)C(=O)N(C)[C@@H](CC(C)C)C(=O)N[C@@H](C)C(=O)N[C@@H](CC(C)C)C(=O)N2CCC[C@@H]2C(=O)O[C@@H]1C,1.5
CC(=O)N1CCC[C@@H]1C(=O)N(C)[C@H](CC(C)C)C(=O)N[C@@H]1C(=O)N[C@@H](CC(C)C)C(=O)N[C@@H](CC(C)C)C(=O)N[C@@H](CC(C)C)C(=O)N[C@@H](C)C(=O)N[C@@H](CC(C)C)C(=O)N2CCC[C@H]2C(=O)O[C@@H]1C,0.065
CC(=O)N1CCC[C@@H]1C(=O)N(C)[C@@H](CC(C)C)C(=O)N[C@@H]1C(=O)N(C)[C@@H](CC(C)C)C(=O)N(C)[C@H](CC(C)C)C(=O)N(C)[C@H](CC(C)C)C(=O)N(C)[C@H](C)C(=O)N[C@@H](CC(C)C)C(=O)N2CCC[C@H]2C(=O)O[C@@H]1C,1.1
CC(=O)N1CCC[C@H]1C(=O)N(C)[C@H](CC(C)C)C(=O)N[C@@H]1C(=O)N[C@@H](CC(C)C)C(=O)N[C@H](CC(C)C)C(=O)N[C@@H](CC(C)C)C(=O)N[C@@H](C)C(=O)N[C@@H](CC(C)C)C(=O)N2CCC[C@H]2C(=O)O[C@@H]1C,0.055
CC(=O)N1CCC[C@@H]1C(=O)N(C)[C@@H](CC(C)C)C(=O)N[C@@H]1C(=O)N[C@H](CC(C)C)C(=O)N[C@H](CC(C)C)C(=O)N[C@@H](CC(C)C)C(=O)N(C)[C@@H](C)C(=O)N[C@H](CC(C)C)C(=O)N2CCC[C@H]2C(=O)O[C@@H]1C,1.5
CC(=O)N1CCC[C@@H]1C(=O)N(C)[C@@H](CC(C)C)C(=O)N[C@@H]1C(=O)N(C)[C@@H](CC(C)C)C(=O)N(C)[C@@H](CC(C)C)C(=O)N(C)[C@H](CC(C)C)C(=O)N(C)[C@@H](C)C(=O)N[C@@H](CC(C)C)C(=O)N2CCC[C@H]2C(=O)O[C@@H]1C,3
CC(=O)N1CCC[C@H]1C(=O)N(C)[C@@H](CC(C)C)C(=O)N[C@@H]1C(=O)N(C)[C@@H](CC(C)C)C(=O)N(C)[C@H](CC(C)C)C(=O)N(C)[C@@H](CC(C)C)C(=O)N[C@@H](C)C(=O)N[C@H](CC(C)C)C(=O)N2CCC[C@H]2C(=O)O[C@@H]1C,1.7
CC(=O)N1CCC[C@H]1C(=O)N(C)[C@@H](CC(C)C)C(=O)N[C@@H]1C(=O)N[C@@H](CC(C)C)C(=O)N(C)[C@H](CC(C)C)C(=O)N[C@@H](CC(C)C)C(=O)N(C)[C@H](C)C(=O)N[C@@H](CC(C)C)C(=O)N2CCC[C@H]2C(=O)O[C@@H]1C,0.79
CC(=O)N1CCC[C@H]1C(=O)N(C)[C@H](CC(C)C)C(=O)N[C@@H]1C(=O)N(C)[C@@H](CC(C)C)C(=O)N(C)[C@H](CC(C)C)C(=O)N(C)[C@H](CC(C)C)C(=O)N(C)[C@@H](C)C(=O)N[C@@H](CC(C)C)C(=O)N2CCC[C@H]2C(=O)O[C@@H]1C,5.9
CC(=O)N1CCC[C@H]1C(=O)N(C)[C@H](CC(C)C)C(=O)N[C@@H]1C(=O)N[C@H](CC(C)C)C(=O)N[C@H](CC(C)C)C(=O)N(C)[C@H](CC(C)C)C(=O)N(C)[C@H](C)C(=O)N[C@@H](CC(C)C)C(=O)N2CCC[C@H]2C(=O)O[C@@H]1C,3.2
CC(=O)N1CCC[C@@H]1C(=O)N(C)[C@@H](CC(C)C)C(=O)N[C@@H]1C(=O)N[C@@H](CC(C)C)C(=O)N[C@H](CC(C)C)C(=O)N(C)[C@@H](CC(C)C)C(=O)N[C@@H](C)C(=O)N[C@@H](CC(C)C)C(=O)N2CCC[C@@H]2C(=O)O[C@@H]1C,1.4
CC(=O)N1CCC[C@H]1C(=O)N[C@@H]1C(=O)N(C)[C@H](CC(C)C)C(=O)N[C@H](CC(C)C)C(=O)N(C)[C@H](CC(C)C)C(=O)N[C@H](CC(C)C)C(=O)N(C)[C@@H](C)C(=O)N[C@@H](CC(C)C)C(=O)N2CCC[C@@H]2C(=O)O[C@@H]1C,1

Excerpt, the opening 2 entries:

structure (SMILES)	PAMPA (10^-6 cm/s)
CC(=O)N1CCC[C@H]1C(=O)N(C)[C@@H](CC(C)C)C(=O)N[C@@H]1C(=O)N(C)[C@@H](CC(C)C)C(=O)N[C@@H](CC(C)C)C(=O)N(C)[C@@H](CC(C)C)C(=O)N(C)[C@@H](C)C(=O)N[C@H](CC(C)C)C(=O)N2CCC[C@H]2C(=O)O[C@@H]1C	0.083
CC(=O)N1CCC[C@H]1C(=O)N(C)[C@@H](CC(C)C)C(=O)N[C@@H]1C(=O)N(C)[C@@H](CC(C)C)C(=O)N(C)[C@H](CC(C)C)C(=O)N(C)[C@H](CC(C)C)C(=O)N(C)[C@@H](C)C(=O)N[C@@H](CC(C)C)C(=O)N2CCC[C@H]2C(=O)O[C@@H]1C	2.5